Assay [1] deals with PPP1R15B(631–701)-MBP and PP1G(7–300) binary complex (human | mouse) (UniProt Q5SWA1).
The target of assay [2] is PPP1R15A(539–614)-PP1G(7–323) binary complex (mouse) (UniProt P17564).
Assay [3] addresses PPP1R15B(631–701)-MBP and PP1G(7–300) binary complex (human | mouse) (UniProt Q5SWA1). The source holds these as a separate data set.
In assay [4] the target is PPP1R15A(539–614)-PP1G(7–323) binary complex (mouse) (UniProt P17564). The assay is described as follows: SEC; ternary complex: stoichiometric binary complex on glutathione-sepharose resin incubated with latrunculin B-blocked G-actin 90–120 min at 4°C, eluted, TEV-cleaved, tandem Superdex 75/200 SEC; fractions on Coomassie-stained SDS-PAGE. For orientation: SEC sorts molecules by how far they enter the pores of the column.

In assay [5] the target is PPP1R15B(631–701)-PP1G(7–323) binary complex (human | mouse) (UniProt Q5SWA1). Described as above.

Consider 1 substance from article PMC4394352.

In general, stoichiometry N refers to a count of units in the complex or per binding partner.

Bounds are passed on as bounds.

With “G-actin (rabbit muscle) (from UniProt P68135 1-377) (natural protein)”, the acceleration of eIF2a^P dephosphorylation (initial velocity, substrate 0.5–4 µM) by the ternary complex over the binary complex (Figure 4E) in assay [1] was 16.5 fold. For the same substance, in assay [2], the concentration of G-actin for half maximal stimulation of eIF2a^P dephosphorylation by 16 nM PPP1R15A-PP1G (Figure 5A) was below 100 nM. In assay [3], the concentration of G-actin for half maximal stimulation of eIF2a^P dephosphorylation by 68 nM PPP1R15B-PP1G (Figure 5A) was below 100 nM. The stoichiometry N in assay [4] and in assay [5] was 1 throughout.
